From PubChem
miR-21 FLuc = miR-21 reporter, rising signal; Potency, µM (doses to about 38.3 µM), without a hit: at the top dose reporter change, positive = more light; HeLa miR-21 FLuc reporter, luciferase, 48 h; 340,000 tested, under 10 active; active = well fitted rising curve with a large enough effect; inconclusive = small, poorly fitted or top-dose-only effect; inactive = no such curve, though single readings can be large or run the other way;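 further: % of control where 0% means no effect; miR-21 action dims this reporter so a rising signal means less miR-21 action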
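HeLa cells endogenously expressing miR-21, stably carrying CMV-driven firefly luciferase with a downstream miR-21 binding site, 2000 cells/well. Titrations up to approximately 40 uM, 48 hours; luciferase luminescence read.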
p53 reactivation = mutant p53 re-activation in reporter cells. H1299 p53-A138V BP100-luciferase reporter, luminescence, 24 h. AID 504706. Potency, µM (titrated, usually from 92.2 µM), for inactives: at the top dose activity change, positive = activation, actives largely listed as activators. actives 0.063% (n = 320,000); further: potency means the concentration at half of the fitted maximal effect; % of control where 0% means no effect; nearly all actives have a fitted effect of over 45% in size
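p53-null H1299 cells stably carrying temperature-sensitive p53-A138V and a BP100-luciferase reporter were pinned with compounds (4-point, 1:5 series) and held 24 hrs at 37 deg C. Luminescence was read 10 min after detection reagent.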
A549 tox = kills or reduces viability of A549 cells in Nrf2 counter-screen; A549 ARE-Fluc cells, CellTiter-Fluor viability, 18-24 h; Potency, µM (top dose mostly 46 µM), for inactives: at the top dose activity change, negative = cytotoxicity, most hits filed as inhibitors; actives 0.16% (n = 390,000); AID 504648; further: potency means the concentration at half of the fitted maximal effect; on the % scale 0 is the no-effect control and ±100 the full control effect
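A549 ARE-Fluc cells in 5% FBS OPTI-MEM, 5000 cells/well, rested 2 h then exposed to compounds in concentration-response for 18-24 h at 37 °C. Viability by CellTiter-Fluor fluorescence (Ex 405/Em 525) after 30 min; luciferase luminescence (BugLite, 15 min, RT) read afterwards.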
ClpP mod = qHTS Assay for Activators of ClpP | ATP-dependent Clp protease proteolytic subunit (Bacillus subtilis (strain 168)), P80244 | purified B. subtilis ClpP, FRET peptide cleavage, 20 min | Potency, µM (doses to about 57.5 µM), without a hit: top-dose activity change, negative = active | actives 1.9% (n = 340,000) | AID 651965, 2013; active means well fitted falling curve with a large enough effect; inconclusive means small, poorly fitted or top-dose-only effect; inactive means no such curve, though single readings can be large or run the other way; further: potency means the concentration at half of the fitted maximal effect; the source files actives as falling curves though it sought activators and does not explain the sign; nearly all actives have a fitted effect of over 65% in size
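FRET quenching reversal measured ClpP activation: 10 microg/mL B. subtilis ClpP at pH 8 with the FRET-FV decapeptide, read at 430 nm after 320 nm excitation. The 20-min minus 0-min signal was scaled between DMSO/no-enzyme wells and ADEP (5.8 microM final).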
Nrf2 block = inhibitors of Nrf2 signaling; A549 ARE-Fluc reporter, luciferase luminescence, 18-24 h; Potency, µM (series often up to 46 µM), for the others: at the highest dose activity change, negative = inhibition, usual class: inhibitors; actives 2.1% (n = 360,000); further: potency means the concentration at half of the fitted maximal effect; on the % scale 0 is the no-effect control and ±100 the full control effect; nearly all actives have a fitted effect of over 60% in size
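In this cell-based qHTS, ARE-driven firefly luciferase in A549 cells reports Nrf2 activity; the luminescent signal after BugLite lysis is the measured value, with a prior CellTiter-Fluor read for cell health.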
Nrf2 ARE act = activators of Nrf2 (ARE) signaling | AREc32 ARE-luciferase reporter (MCF7-derived line), luminescence, 24 h | Potency, µM (highest dose often 46.1 µM), for inactives: at the highest dose activation, actives largely listed as activators | actives 0.31% (n = 410,000); further: potency means the concentration at half of the fitted maximal effect; % of control where 0% means no effect; nearly all actives have a fitted effect of over 65% in size
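Steps: seed AREc32_Fluc cells (1000/well, 5% FBS OPTI-MEM); incubate overnight at 37 deg C; add 23 nL compound; incubate 24 hr; add Steady-Glo; hold 30 min RT; read luminescence.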
ClpP inh valid = validation of B. subtilis ClpP protease hits (inhibitors); shares compounds with ClpP mod; purified B. subtilis ClpP, FRET-FV substrate cleavage, 20 min; Potency, µM (doses to about 57.5 µM), without a hit: at the top dose activity change, negative = inhibition, usual class: inhibitors; actives 40% (n = 470); AID 743245; further: potency means the concentration at half of the fitted maximal effect; on the % scale 0 is the no-effect control and ±100 the full control effect; nearly all actives have a fitted effect of over 70% in size
* hit, by the source's call; ? = inconclusive; · = not tested or not shown; ! = not active in a repeat. Shown are actives, neighbours in structure and some others; about 3.7% of the full set was active somewhere. Unless noted, the call rests on the fitted dose curve; in most records, active means well fitted curve in the direction sought with a large enough effect; inconclusive means small, poorly fitted or top-dose-only effect, or another doubt; inactive means no such curve, though single readings can be large; an effect the other way counts as inactive or inconclusive.

The opening three entries (preview)
Each structure is followed by: miR-21 FLuc	p53 reactivation	A549 tox	ClpP mod	Nrf2 block	Nrf2 ARE act	ClpP inh valid
CCc1nc(Nc2cccc(O)c2)c2oc3ccccc3c2n1
 : 16.5%	-1.0%	2.3%	-11.3%	-3.3%	-2.0%	·
CCc1nc(Nc2ccncc2)c2oc3ccccc3c2n1
 : 24.8%	-6.3%	-18.8%	8.91µM*	-10.9%	10.5%	?
Cc1cccc(N2CCN(C(=O)c3cn(C4CCCCC4)c(=O)c4c3c3ccccc3n4C)CC2)c1C
 : 23.3%	·	-1.9%	8.91µM*	-11.5%	-0.1%	-23.4%

This part in full, repeating the preview:
Each structure is followed by: miR-21 FLuc	p53 reactivation	A549 tox	ClpP mod	Nrf2 block	Nrf2 ARE act	ClpP inh valid
CCc1nc(Nc2cccc(O)c2)c2oc3ccccc3c2n1
 : 16.5%	-1.0%	2.3%	-11.3%	-3.3%	-2.0%	·
CCc1nc(Nc2ccncc2)c2oc3ccccc3c2n1
 : 24.8%	-6.3%	-18.8%	8.91µM*	-10.9%	10.5%	?
Cc1cccc(N2CCN(C(=O)c3cn(C4CCCCC4)c(=O)c4c3c3ccccc3n4C)CC2)c1C
 : 23.3%	·	-1.9%	8.91µM*	-11.5%	-0.1%	-23.4%
COc1ccc(-n2c(-c3cccc(OC)c3)nc(=S)c3c2CCCC3)cc1
 : -5.9%	-0.4%	-12.4%	52.7%	25.9µM*	2.7%	2.5%
c1ccc2nc(-c3ccc(N4CCOCC4)cc3)ccc2c1
 : -34.5%	·	-2.8%	106.5%	?	0.3%	7.3%
Cc1cc(-c2ccc(N3CCOCC3)cc2)nc2ccccc12
 : -61.1%	?	1.2%	?	?	9.7%	·
Nc1nc(N2CCN(C(=O)c3ccco3)CC2)nc2ccccc12
 : -74.6%	?	2.5%	4.47µM*	11.4%	0.6%	27.3µM*
CCOc1ccc(-n2c(=O)c3c4c(sc3n(CC(=O)NC(C)CC)c2=O)CCC4)cc1 (stereo not given)
 : -8.4%	·	4.2%	1.0%	1.1%	0.3%	·
O=C(c1cc2c(=O)n3ccccc3nc2s1)N1CCOCC1
 : -43.4%	?	-2.7%	4.47µM*	17.2%	6.3%	24.3µM*
COc1cc2c(cc1NC(=O)CN1CCN(S(=O)(=O)c3ccccc3F)CC1)oc1ccccc12
 : -3.5%	-1.7%	1.1%	3.55µM*	13.6%	2.1%	?
COc1cccc2c1cc1c(=O)n(CC(=O)NC3CC3)nc(C)n12
 : -1.5%	·	6.9%	?	-9.6%	0.6%	·
COc1cccc2c1cc1c(=O)n(CC(=O)N3CCC(C)CC3)nc(C)n12
 : -3.3%	-3.6%	1.2%	2.51µM*!	-8.7%	-0.2%	4.85µM*
COc1cccc2c1cc1c(=O)n(CC(=O)N3CCN(c4ccccc4F)CC3)nc(C)n12
 : -2.5%	·	-3.8%	7.94µM*	-6.8%	-0.4%	3.06µM*
COc1cc(Cl)c(C)cc1NC(=O)Cn1ncc2c(=O)oc3ccccc3c21
 : -2.0%	·	8.1%	1.0%	25.4%	-0.9%	·
CCc1ccc(NC(=O)CSc2ccc3nc(-c4ccc(OC)cc4)cn3n2)cc1
 : -61.9%	·	-11.9%	4.1%	·	5.5%	·
Cc1cc(-c2ccccc2)c2nncn2n1
 : -12.0%	-2.3%	-1.4%	7.94µM*	-15.4%	0.3%	21.7µM*
Cc1cc(N2CCN(Cc3cn(C)nc3-c3cccc(Cl)c3)CC2)cc(C)n1
 : ?	-4.5%	?	·	-16.1%	0.6%	·
Cn1cc(CN2CCN(c3ncccn3)CC2)c(-c2cccc(Cl)c2)n1
 : -1.0%	-8.9%	-0.8%	220.6%	?	0.1%	-1.5%
CCN(CC)S(=O)(=O)c1cccc2c(N(C)C)cccc12
 : -2.1%	-2.7%	1.3%	3.55µM*	-17.0%	-0.9%	-4.5%
COc1ccc(CCNc2cc(C)nc3c(-c4ccc(Cl)cc4)cnn23)cc1OC
 : 12.6%	-4.7%	-5.5%	8.91µM*	-3.9%	0.1%	24.3µM*
O=C(NCc1ccccc1)c1nnc(CS(=O)(=O)c2ccccc2)o1
 : -3.9%	·	-0.1%	2.2%	-10.3%	-0.5%	·
Clc1cc2nc3ccccn3c2cc1Cl
 : -34.2%	17.4%	20.6%	8.91µM*	·	2.7%	19.3µM*
O=Cc1c(Cl)nc2ccccn12
 : 3.4%	-0.2%	-2.7%	·	0.8%	-0.6%	·
COc1cccc(NC(=O)c2ccc3nc(Cc4ccccc4)oc3c2)c1
 : 6.8%	·	-18.9%	-7.5%	·	7.0%	·
